Source: publication PMC3198503

Target: TRC40 (transmembrane domain recognition complex of 40 kDa) (rabbit (endogenous in rabbit reticulocyte lysate))
Assay: co-IP

binding relative to the unmodified protein (fold of the unmodified protein): 0.5
Substance: Sec61βOPG^S77C,L79C, singly PEGylated (1×PEG) (from UniProt P60468 1-96) (natural protein)
